Source: ChEMBL document CHEMBL1212824, “A type-II kinase inhibitor capable of inhibiting the T315I "gatekeeper" mutant of Bcr-Abl” (J Med Chem, 2010)

Assay: cells
Settings: Mus musculus, BaF3

IC50: 0.5 µM
Structure (SMILES): COc1ccc(Nc2ncnc(-c3cccnc3Nc3cc(NC(=O)c4ccc(CN5CCN(C)CC5)cc4)ccc3C)n2)cc1
